Laboratory results published in ChEMBL document CHEMBL1157393, “Selective inhibition of aromatase by a dihydroisocoumarin from Xyris pterygoblephara” (J Nat Prod, 2008).

By UniProt entry, the sequences of proteins in these tests, tags left out. Where a name states a change or a piece, a line headed by the entry shows the natural chain unless it says otherwise.
UniProt P11511: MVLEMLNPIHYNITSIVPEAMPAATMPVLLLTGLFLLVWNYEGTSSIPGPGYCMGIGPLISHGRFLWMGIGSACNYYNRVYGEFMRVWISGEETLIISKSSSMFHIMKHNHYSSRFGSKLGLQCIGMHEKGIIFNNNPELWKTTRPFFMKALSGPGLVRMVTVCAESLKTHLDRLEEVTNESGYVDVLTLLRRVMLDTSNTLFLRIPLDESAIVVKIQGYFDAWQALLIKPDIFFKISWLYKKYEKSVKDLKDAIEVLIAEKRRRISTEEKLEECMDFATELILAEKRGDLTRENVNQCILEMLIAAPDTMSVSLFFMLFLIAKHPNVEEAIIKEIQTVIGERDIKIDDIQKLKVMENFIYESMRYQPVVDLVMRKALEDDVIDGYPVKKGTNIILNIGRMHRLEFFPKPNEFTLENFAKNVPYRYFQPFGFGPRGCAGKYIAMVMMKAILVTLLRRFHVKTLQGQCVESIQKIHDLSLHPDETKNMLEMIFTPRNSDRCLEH

What was measured:
[1] = target: T1, Aromatase (Homo sapiens, UniProt P11511); experiment: Inhibition of aromatase by radiometric method
[2] = target: T1, Aromatase; experiment: Inhibition of aromatase by fluorimetric method
[3] = target: T1, Aromatase; experiment: Inhibition of aromatase by fluorimetric high throughput method

Structure (SMILES): CC(C)=CCc1cc(C2CC(=O)c3ccc(O)cc3O2)ccc1O (racemic) [(RAC)-ABYSSINONE II]
- IC50 [1]: 0.6 µM
- IC50 [2]: 40.9 µM
- IC50 [3]: 62 µM
